According to patent US9734282B2, “Biological dataset profiling of cardiovascular disease and cardiovascular inflammation” (DISCOVERX CORPORATION, priority 2005, dated 2017):

Tests used:
[1] = tested on: Peripheral Blood Mononuclear Cells + Endothelial Cells; assay: BioMAP SAg system (PBMC + endothelial cells, TCR), cell-based ELISA; parameters: species or system human; details: protein level drug-treated versus buffer control, 24 h
Procedure: (§1) Human umbilical vein endothelial cells (HUVEC) were cultured according to standard methods, and plated into microtiter plates. Peripheral blood mononuclear cells (PBMC) were prepared from buffy coats from normal human donors according to standard methods. Experiments were performed by culturing HUVEC in microtiter plates in the presence of cytokines (IL-1b, 1 ng/ml; TNF-a, 5 ng/ml; and IFN-g, 100 ng/ml, or IL-4, 5 ng/ml and histamine, […]), activators (SAg, 20 ng/ml or LPS, 0.2 ng/ml), and/or PBMC (7.5×10^4 cells/well) for 24 h. Compounds were tested at the indicated concentrations. Compounds were prepared in the solvent as directed, added 1 hr before stimulation of the cells, and were present during the whole 24 hr stimulation period.
(§2) The levels of readout parameters (proteins) were measured by cell-based ELISA. Briefly, microtiter plates are treated, blocked, and then incubated with primary antibodies or isotype control antibodies (0.01-0.5 mg/ml) for 1 hr. After washing, plates were incubated with a peroxidase-conjugated anti-mouse IgG secondary antibody or a biotin-conjugated anti-mouse IgG antibody for 1 hr followed by streptavidin-HRP for 30 min. Plates were washed and developed with TMB substrate and the absorbance (OD) was read at 450 nm (subtracting the background absorbance at 650 nm). Other readout parameters include: total protein levels (SRB assay), measuring the viability of peripheral blood mononuclear cells (incorporation of propidium iodide); and microscopic visualization. SRB was performed by staining cells with 0.1% sulforhodamine B after fixation with 10% TCA, and reading wells at 560 nm. PBMC viability was assessed by adding propidium iodide (10 mg/ml) to PBMC that had been cultured for 24 hours in the presence of activators and measuring the percentage of cells that incorporated dye by flow cytometry after 10 minutes.
For data analysis, mean OD values (or other measurements) for each parameter were calculated from triplicate samples per experiment. […] 99% prediction envelopes (grey shading in Figures) were calculated for historical controls.

[2] = tested on: Primary Human Endothelial Cells (HUVEC); assay: BioMAP 4H system (endothelial cells + IL-4 + histamine), cell-based ELISA; details: protein level drug-treated versus buffer control, 24 h
Procedure: as §1, with “Compounds were prepared in the solvent as directed, added 1 hr before stimulation of the cells, and were present during the whole 24 hr stimulation period.” left out
as §2, with “Briefly, microtiter plates are treated, blocked, and then incubated with primary antibodies or isotype control antibodies (0.01-0.5 mg/ml) for 1 hr. After washing, plates were incubated with a peroxidase-conjugated anti-mouse IgG secondary antibody or a biotin-conjugated anti-mouse IgG antibody for 1 hr followed by streptavidin-HRP for 30 min.” left out, “minutes. […]” for “minutes.”

CC[C@H](C)C(=O)O[C@H]1C[C@@H](C)C=C2C=C[C@H](C)[C@H](CC[C@@H]3C[C@@H](O)CC(=O)O3)[C@H]21 [lovastatin]
CD69 level [1]: significant decreases
E-selectin level [1]: increases
IL-8 level [1]: increases
P-selectin level [2]: increases
